Assays:
[1] = biological target: 5-hydroxytryptamine receptor 5A (Rattus norvegicus, UniProt P35364)
[2] = biological target: 5-hydroxytryptamine receptor 5B (Rattus norvegicus, UniProt P35365)

By UniProt entry, the sequences of proteins in these tests, tags left out.
UniProt P35364, whole entry: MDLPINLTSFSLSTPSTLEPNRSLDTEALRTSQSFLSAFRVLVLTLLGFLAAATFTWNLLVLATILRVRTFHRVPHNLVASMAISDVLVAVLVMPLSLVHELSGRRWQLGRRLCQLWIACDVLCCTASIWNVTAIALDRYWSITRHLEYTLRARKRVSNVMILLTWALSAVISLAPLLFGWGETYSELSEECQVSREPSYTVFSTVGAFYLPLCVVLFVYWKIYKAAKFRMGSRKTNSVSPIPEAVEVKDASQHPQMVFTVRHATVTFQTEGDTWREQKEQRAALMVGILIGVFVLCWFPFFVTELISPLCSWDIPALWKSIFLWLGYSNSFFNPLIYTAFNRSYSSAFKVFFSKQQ
UniProt P35365, whole entry: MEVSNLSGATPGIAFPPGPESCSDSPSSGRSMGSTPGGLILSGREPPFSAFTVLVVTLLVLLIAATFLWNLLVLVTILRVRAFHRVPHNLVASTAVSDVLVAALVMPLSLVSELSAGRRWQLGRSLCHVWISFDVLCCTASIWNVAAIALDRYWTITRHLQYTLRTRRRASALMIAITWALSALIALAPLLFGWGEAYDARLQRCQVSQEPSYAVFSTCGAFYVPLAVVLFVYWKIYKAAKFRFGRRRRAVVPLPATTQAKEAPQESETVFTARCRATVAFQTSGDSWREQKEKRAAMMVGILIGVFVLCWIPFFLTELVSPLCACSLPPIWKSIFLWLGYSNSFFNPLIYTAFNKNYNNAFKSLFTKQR

| Structure (SMILES) | Ki [1] [µM] | Ki [2] [µM] |
| --- | --- | --- |
| CN1C[C@H](C(=O)N[C@]2(C)O[C@@]3(O)[C@@H]4CCCN4C(=O)[C@H](Cc4ccccc4)N3C2=O)C=C2c3cccc4[nH]cc(c34)C[C@H]21 [12'-hydroxy-2'-methyl-5'alpha-(phenylmethyl)ergotaman-3',6',18-trione] | 0.0157 |  |
| NCCc1c[nH]c2ccc(O)cc12 [[3H]-5-HT] |  | 0.239 |

Source: BindingDB's records for doi:10.1073/pnas.90.8.3452 (The Scripps Research Institute, 1993)
